# Assay results from patent US20210087290A1, “COMPOUNDS WHICH SPECIFICALLY BIND TO CD38 FOR USE IN THE TREATMENT OF NEURODEGENERATIVE AND INFLAMMATORY DISEASES” (ENCEFA, priority 2017, published 2021).
# Tests used:
# [1] = in humans; cited from earlier work
# cortical neurons = experiment: Measurement of glucose uptake in cortical neurons (2-NBDG); assay type: cell-based, Wistar rat; conditions: acute treatment 30 min, 7 DIV; HB7 1 μg/mL, NAD^+ 3 mM, insulin 100 nM
# Description: Animals were treated in accordance with the Guide for the Care and Use of Laboratory Animals (National Research Council, 1996), European Directive 86/609, and the guidelines of the local institutional animal care and use committee. Cultures were prepared from the cortex of gestational age 15.5 Wistar rat embryos (Janvier Breeding Center, Le Genest St Isle, France). Dissociated cells in suspension obtained by mechanical trituration of cortical tissue pieces were seeded onto tissue culture supports precoated with 1 mg/mL polyethylenimine diluted in borate buffer pH 8.3 according to the protocol previously described for mesencephalic cultures. […] They were fed daily by replacing 70% of the medium. […]
# Glucose uptake was measured in individual cortical neurons using the fluorescent glucose analogue 2-NBDG (Abcam). […] The fluorescent signal (excitation, 465 nm; emission, 540 nm) was acquired using an Arrayscan (ThermoFischer Scientific) and quantified using ImageJ. The average pixel intensity over the surface of each cell body was determined under the different experimental conditions. Background fluorescence was subtracted from raw data, and the results were expressed as a percentage of mean fluorescence intensity per cell under control conditions. 100 cells were analysed under each test condition.
Substance,Brain/plasma ratio [1] [%],glucose uptake (cortical neurons)
Aducanumab: antibody used to neutralize Aβ peptides,1.3,
insulin,,increased glucose uptake
